The target of this assay is Fnr (B. cereus Fnr; apoFnr / holoFnr) (Bacillus cereus, UniProt A4GFD9). Particulars: anoxic, 18 °C, pH 7.5, 4 mM DTT; cluster assembled from Fe(NH4)2(SO4)2 and L-cysteine by E. coli CsdA; one cluster per monomer.

In the case of `[S]12[Fe]3[S]4[Fe]1[S]1[Fe]2[S]3[Fe]41` [[4Fe-4S]^2+ cluster], the “anaerobic CsdA-driven reconstitution; UV-visible and EPR spectroscopy, iron cont” value was “These data are consistent with the reconstitution of one [4Fe-4S] cluster per Fnr monomer”.

These data come from article PMC3520743, “Bacillus cereus Fnr binds a [4Fe-4S] cluster and forms a ternary complex with ResD and PlcR” (BMC Microbiology, 2012).
